Reference: ChEMBL document CHEMBL1129321, “Discovery of an orally active non-peptide fibrinogen receptor antagonist” (J Med Chem, 1996)

Species: Homo sapiens
Assay: Inhibitory activity against aggregation of human platelets
Format: functional, organism-based
Summary of the method: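 Human platelets were gel-filtered from PRP on Sepharose 2B and used at 3 × 10⁸ platelets/mL with 1 mg/mL fibrinogen. Compounds were added at 37 °C 2 min before activation with 10 µM ADP, with stirring at 1000 rpm at 37 °C. Aggregation was read as the maximal increase in light transmittance. IC50 is the mean over GFP from two to six donors.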

Structure (SMILES): N=C(N)NCCC[C@H](N)C(=O)NCC(=O)N[C@@H](CC(=O)O)C(=O)N[C@@H](CO)C(=O)O
- IC50: 100 µM
